The record followed here is patent publication US7456147B2, “Controlled release of active agents utilizing repeat sequence protein polymers” (Dow Corning, Corporation, priority 2003, dated 2008).

Read-outs that look alike come from different tables or passages of the source.

As for glucose oxidase [Gox], the “degradation of the enzyme on storage” value (17 hours at 37° C. and 28 hours at room temperature) was “No degradation of the enzyme was observed”. In addition, the “Gox activity after storage” value amounted to 66.59 mg/mL (after 17 hours at 37° C.) and 66.75 mg/mL (after 28 hours at room temperature).
